Test results published in article PMC5799184, “Gs- versus Golf-dependent functional selectivity mediated by the dopamine D1 receptor” (Nature Communications, 2018).

The chains behind the UniProt entries cited, without tags or fusion partners. Where a name states a change or a piece, a line headed by the entry shows the natural chain unless it says otherwise. Residues count along the entry.
UniProt P14416, 1-414 isoform P14416-2: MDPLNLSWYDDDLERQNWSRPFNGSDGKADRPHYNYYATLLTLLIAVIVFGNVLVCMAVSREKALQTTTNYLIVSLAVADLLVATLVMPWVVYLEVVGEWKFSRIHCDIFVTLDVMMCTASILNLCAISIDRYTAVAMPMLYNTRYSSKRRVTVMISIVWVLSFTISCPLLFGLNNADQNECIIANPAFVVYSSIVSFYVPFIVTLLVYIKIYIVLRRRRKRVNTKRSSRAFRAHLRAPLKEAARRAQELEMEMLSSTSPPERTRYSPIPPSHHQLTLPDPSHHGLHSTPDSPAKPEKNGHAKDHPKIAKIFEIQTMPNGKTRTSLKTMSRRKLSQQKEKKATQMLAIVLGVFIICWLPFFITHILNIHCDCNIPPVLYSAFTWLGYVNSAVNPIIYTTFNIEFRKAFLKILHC

Biological target: T1, D2R (D2SR), Go activation (Homo sapiens, UniProt P14416)
T1 construct: gene DRD2

In the case of `Oc1cc2c(c(Cl)c1O)CCNCC2c1ccccc1` (stereo not shown) [SKF81297], the EC50 is reported as “DHX and SKF81297 were about one order of magnitude less potent”.
